{
  "source": "patent US9120249B2",
  "about": "“Implant device release agents and methods of using same” (ENDO PHARMACEUTICALS SOLUTIONS INC., priority 2007, dated 2015)",
  "key": {"[1]": {"test": "Tensile strength of gamma irradiated cartridges, initially and after storage at 37° C.", "assay_type": "physicochemical", "conditions": "initially after irradiation and after 3 and 8 months storage at 37° C.", "method": "Approximately 15-20 cartridges of each formulation were prepared and gamma irradiated at 10-11 kGy. The tensile strength of five cartridges from each formulation was measured initially. The remaining cartridges were stored at 37° C. and tested for tensile strength again at 3 and 8 months."}, "[2]": {"conditions": "cited from earlier work"}},
  "data": [
    {"substance": "D-α-tocopheryl (Vitamin E) polyethylene glycol 1000 succinate [Vitamin E TPGS]", "values": [
      {"measurement": "tensile strength of cartridges, in words", "setting": "[1]", "value": "highest tensile strength"},
      {"measurement": "CMC", "setting": "[2]; critical micelle concentration", "value": 0.1, "unit": "mM"},
      {"measurement": "HLB", "setting": "[2]; hydrophilic-lipophilic balance", "value": 13}
    ]}
  ]
}
